Results as given in ChEMBL document CHEMBL4043273, “Phenotypic Optimization of Urea-Thiophene Carboxamides To Yield Potent, Well Tolerated, and Orally Active Protective Agents against Aminoglycoside-Induced Hearing Loss” (J Med Chem, 2018).

Protein sequences, listed by entry. Tags and fused reporters are not part of them. Lines headed by an entry give the natural chain unless they say otherwise; changes in a name come on top.
UniProt Q12809: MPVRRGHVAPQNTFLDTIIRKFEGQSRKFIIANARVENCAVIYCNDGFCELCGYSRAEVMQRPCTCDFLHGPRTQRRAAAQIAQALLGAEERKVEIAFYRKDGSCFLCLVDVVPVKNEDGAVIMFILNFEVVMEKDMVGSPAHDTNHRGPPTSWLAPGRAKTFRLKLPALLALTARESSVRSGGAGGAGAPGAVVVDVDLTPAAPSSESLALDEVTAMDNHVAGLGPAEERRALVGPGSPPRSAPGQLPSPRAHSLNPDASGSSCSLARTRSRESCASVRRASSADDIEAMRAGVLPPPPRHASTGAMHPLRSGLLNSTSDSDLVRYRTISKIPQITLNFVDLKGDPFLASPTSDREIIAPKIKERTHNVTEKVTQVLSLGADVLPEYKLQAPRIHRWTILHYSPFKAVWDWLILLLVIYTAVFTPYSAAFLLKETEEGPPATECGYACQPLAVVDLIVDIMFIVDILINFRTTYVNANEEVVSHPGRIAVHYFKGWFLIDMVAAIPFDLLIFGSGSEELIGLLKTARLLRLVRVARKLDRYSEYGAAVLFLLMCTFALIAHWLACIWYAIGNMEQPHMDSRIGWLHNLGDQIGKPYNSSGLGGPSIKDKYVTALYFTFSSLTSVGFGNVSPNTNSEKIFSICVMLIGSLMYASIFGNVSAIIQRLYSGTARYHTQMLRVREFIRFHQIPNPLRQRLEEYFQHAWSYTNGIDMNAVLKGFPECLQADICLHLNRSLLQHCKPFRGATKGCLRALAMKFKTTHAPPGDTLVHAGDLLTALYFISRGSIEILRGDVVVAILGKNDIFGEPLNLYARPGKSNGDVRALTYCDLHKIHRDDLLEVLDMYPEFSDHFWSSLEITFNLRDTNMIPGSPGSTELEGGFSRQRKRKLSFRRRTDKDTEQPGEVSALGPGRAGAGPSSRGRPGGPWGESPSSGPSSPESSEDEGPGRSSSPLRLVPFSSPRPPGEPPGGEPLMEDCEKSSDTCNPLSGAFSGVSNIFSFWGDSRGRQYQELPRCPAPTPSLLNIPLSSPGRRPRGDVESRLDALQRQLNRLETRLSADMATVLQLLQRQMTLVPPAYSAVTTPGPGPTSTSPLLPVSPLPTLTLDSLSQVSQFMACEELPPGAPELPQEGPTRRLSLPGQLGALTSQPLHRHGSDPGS

What was measured:
Danio rerio = species on record: Danio rerio; assay: Protection against neomycin-induced hair cell death in AB zebra fish larvae assessed as increase in hair cell survival at 12.5 uM preincubated for 1 hr followed by neomycin challenge for 1 hr by DASPEI staining-based epifluorescence dissecting microscopic method relative to control; assay type: functional
[1] = biological target: Voltage-gated inwardly rectifying potassium channel KCNH2 (Homo sapiens, UniProt Q12809); details: hek293

Structure (SMILES)	%max (Danio rerio) [%]	IC50 [1] [µM]
CCN1CCc2c(sc(NC(=O)Nc3ccc(Cl)cc3)c2C(N)=O)C1.Cl	94	
CN1[C@@H]2CC[C@H]1c1c(sc(NC(=O)Nc3ccc(Cl)cc3)c1C(N)=O)C2.Cl		5.6
